Measured values reported in patent publication US12655106B2 (Eikonizo Therapeutics, Inc., priority 2021, dated 2026).

Amino acid sequences for entries named in this document (tags omitted).
UniProt Q9UBN7, whole entry: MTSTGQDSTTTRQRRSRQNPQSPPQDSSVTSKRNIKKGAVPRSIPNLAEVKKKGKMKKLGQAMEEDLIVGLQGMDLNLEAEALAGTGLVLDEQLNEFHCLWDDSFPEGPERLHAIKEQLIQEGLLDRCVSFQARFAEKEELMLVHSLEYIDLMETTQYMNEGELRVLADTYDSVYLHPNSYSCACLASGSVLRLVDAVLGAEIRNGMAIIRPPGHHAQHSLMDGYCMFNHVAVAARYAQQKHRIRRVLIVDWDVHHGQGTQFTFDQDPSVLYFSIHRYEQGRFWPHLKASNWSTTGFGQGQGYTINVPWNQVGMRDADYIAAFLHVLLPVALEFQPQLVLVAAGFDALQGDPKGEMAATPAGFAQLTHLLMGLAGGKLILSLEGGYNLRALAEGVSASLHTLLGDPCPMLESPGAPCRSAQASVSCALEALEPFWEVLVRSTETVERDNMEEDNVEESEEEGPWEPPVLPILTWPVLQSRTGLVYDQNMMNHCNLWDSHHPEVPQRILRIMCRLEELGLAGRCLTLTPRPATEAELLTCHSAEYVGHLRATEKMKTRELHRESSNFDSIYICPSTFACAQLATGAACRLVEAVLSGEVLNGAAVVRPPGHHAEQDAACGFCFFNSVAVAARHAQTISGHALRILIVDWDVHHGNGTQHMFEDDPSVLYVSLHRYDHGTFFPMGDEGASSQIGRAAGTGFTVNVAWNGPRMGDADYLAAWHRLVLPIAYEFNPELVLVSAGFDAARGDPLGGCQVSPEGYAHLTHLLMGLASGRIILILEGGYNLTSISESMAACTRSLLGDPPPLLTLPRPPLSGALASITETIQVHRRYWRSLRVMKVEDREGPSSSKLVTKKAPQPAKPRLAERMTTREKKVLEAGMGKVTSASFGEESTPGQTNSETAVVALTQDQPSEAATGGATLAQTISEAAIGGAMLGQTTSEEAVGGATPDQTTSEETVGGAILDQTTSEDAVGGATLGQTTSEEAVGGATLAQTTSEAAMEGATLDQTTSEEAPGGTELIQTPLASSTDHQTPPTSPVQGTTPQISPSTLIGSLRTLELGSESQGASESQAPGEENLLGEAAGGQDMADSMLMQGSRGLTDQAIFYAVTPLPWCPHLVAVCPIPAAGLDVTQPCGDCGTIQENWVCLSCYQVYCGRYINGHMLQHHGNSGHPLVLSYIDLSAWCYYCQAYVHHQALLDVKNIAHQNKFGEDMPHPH

Target: Full length Human HDAC6 (Homo sapiens, UniProt Q9UBN7)
Assay: Caliper endpoint assay for HDAC enzymatic activity (HDAC6)
Format: biochemical
Settings: ratio of HDAC8 IC50/HDAC6 IC50

Selectivity (6 v 8): II (II: >1-10)
SMILES: CN1Cc2ccc(C(=O)NO)cc2CN1Cc1ccccc1
